Test results published in PubChem BioAssay AID368 (University of Pittsburgh Molecular Library Screening Center, 2006).
Only a part is listed here, and it is no random draw. Active and inactive are the calls of the source. Cut-off read from the data, not from the text of the source: active = inhibition above about 50%; inactive = the rest.

The chains behind the UniProt entries cited, without tags or fusion partners. Where a name states a change or a piece, a line headed by the entry shows the natural chain unless it says otherwise.
UniProt P30305: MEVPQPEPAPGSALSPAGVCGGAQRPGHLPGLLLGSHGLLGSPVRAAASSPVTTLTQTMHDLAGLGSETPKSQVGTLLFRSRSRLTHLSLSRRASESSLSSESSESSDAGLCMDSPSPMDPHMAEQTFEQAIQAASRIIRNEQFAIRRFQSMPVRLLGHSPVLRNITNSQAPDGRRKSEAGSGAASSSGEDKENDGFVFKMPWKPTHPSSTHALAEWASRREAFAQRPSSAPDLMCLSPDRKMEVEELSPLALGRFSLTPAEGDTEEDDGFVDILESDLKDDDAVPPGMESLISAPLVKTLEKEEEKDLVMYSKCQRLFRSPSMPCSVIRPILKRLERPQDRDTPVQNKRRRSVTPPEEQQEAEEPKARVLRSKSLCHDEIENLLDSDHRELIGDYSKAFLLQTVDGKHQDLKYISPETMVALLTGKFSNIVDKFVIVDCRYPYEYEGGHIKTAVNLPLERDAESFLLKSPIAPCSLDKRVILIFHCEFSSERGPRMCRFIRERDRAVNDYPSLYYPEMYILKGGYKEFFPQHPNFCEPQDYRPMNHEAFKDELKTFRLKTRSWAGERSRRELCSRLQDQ

molecular target: M-phase inducer phosphatase 2 (Homo sapiens) (UniProt P30305); assay: inhibitors of Cdc25B phosphatase catalytic domain, primary screen, biochemical, OMFP fluorescence (AID 368); details: recombinant Cdc25B, OMFP fluorescence Ex485/Em525; active compounds read high;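 compounds tested at 10 µM final in the well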

Row | SMILES | inhibition
1 | O=C(COc1ccccc1)OC1CN2CCC1CC2 (stereo not given) | inactive: 0.358%
2 | COP1(=S)c2c(C)nn(CCC#N)c2N=C(c2ccc(F)cc2)N1C (stereo not given) | inactive: -26%
3 | O=C(OC1CN2CCC1CC2)C12CC3CC(CC(C3)C1)C2 (stereo not given) | inactive: -3.87%
4 | Cc1cccc(OCC(=O)OC2CN3CCC2CC3)c1 (stereo not given) | inactive: -30.4%
5 | CCOP1(=S)c2c(C)nn(CCC#N)c2N=C(c2ccccc2F)N1C (stereo not given) | inactive: -2.04%
6 | O=P(Nc1nccs1)(c1ccccc1)c1nc2ccccc2s1 (stereo not given) | inactive: -1.75%
7 | CCOP1(=S)c2c(C)nn(CCC#N)c2N=C(c2ccc(F)cc2)N1C (stereo not given) | inactive: -11.9%
8 | Cc1nn(-c2ccccc2)c2c1P(=O)(N1CCOCC1)N(C)C(c1ccccc1)=N2 (stereo not given) | inactive: -9.77%
9 | Cc1ccc(OCC(=O)OC2CN3CCC2CC3)cc1 (stereo not given) | inactive: -36.7%
10 | O=P1(Nc2ccc(Br)cn2)COc2ccccc2OC1 | inactive: -1.01%
11 | O=P1(Nc2ncccn2)COc2ccccc2OC1 | inactive: 3.6%
12 | Clc1n[nH]nc1-c1nn[nH][15n]1 | inactive: -13.5%
13 | O=P1(Nc2ccccn2)COc2ccccc2OC1 | inactive: -3.72%
14 | c1nnnn1CCn1cnnn1 | inactive: 7.01%
15 | O=P(Nc1nccs1)(c1ccccc1)c1ccccc1 | inactive: -15.1%
16 | O=C(OC1CN2CCC1CC2)c1cccc(Cl)c1 (stereo not given) | inactive: -4.45%
17 | COC(=O)c1cc2c(s1)N=C(c1ccccc1)N(C)P2(=O)N1CCOCC1 (stereo not given) | inactive: -7.31%
18 | O=P1(Nc2nc3ccc(Cl)cc3s2)COc2ccccc2O1 (stereo not given) | inactive: 3.31%
19 | Cc1c2non([O-])c-2c(C)[n+](=O)[n+]1[O-] | inactive: -11.2%
20 | CCc1nc2c(n1)c1c(non1O)c1c2no[n+]1[O-] | inactive: 2.35%
